Permeability data for macrocyclic peptides

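Lipid, pH, incubation time, direction and concentration are not recorded in the data file. Other peptides of the study may be missing here. Peptides that the database sets to -10, its floor, are left out.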

PAMPA measures passive passage through an artificial lipid membrane. Permeability is in 10^-6 cm/s, converted from the database's log10 values; higher is more permeable.

| PAMPA (10^-6 cm/s) | SMILES |
|---|---|
| 5.6 | CC(=O)N1CCC[C@@H]1C(=O)N(C)[C@H](CC(C)C)C(=O)N[C@@H]1C(=O)N(C)[C@@H](CC(C)C)C(=O)N[C@@H](CC(C)C)C(=O)N(C)[C@@H](CC(C)C)C(=O)N(C)[C@H](C)C(=O)N[C@H](CC(C)C)C(=O)N2CCC[C@@H]2C(=O)O[C@@H]1C |
| 1.6 | CC(=O)N1CCC[C@@H]1C(=O)N(C)[C@@H](CC(C)C)C(=O)N[C@@H]1C(=O)N(C)[C@H](CC(C)C)C(=O)N[C@H](CC(C)C)C(=O)N(C)[C@H](CC(C)C)C(=O)N[C@H](C)C(=O)N[C@H](CC(C)C)C(=O)N2CCC[C@@H]2C(=O)O[C@@H]1C |
| 0.021 | CC(=O)N1CCC[C@H]1C(=O)N(C)[C@H](CC(C)C)C(=O)N[C@@H]1C(=O)N[C@@H](CC(C)C)C(=O)N[C@@H](CC(C)C)C(=O)N[C@@H](CC(C)C)C(=O)N[C@@H](C)C(=O)N[C@H](CC(C)C)C(=O)N2CCC[C@@H]2C(=O)O[C@@H]1C |
| 0.52 | CC(=O)N1CCC[C@@H]1C(=O)N(C)[C@H](CC(C)C)C(=O)N[C@@H]1C(=O)N[C@@H](CC(C)C)C(=O)N(C)[C@H](CC(C)C)C(=O)N(C)[C@H](CC(C)C)C(=O)N(C)[C@@H](C)C(=O)N[C@@H](CC(C)C)C(=O)N2CCC[C@H]2C(=O)O[C@@H]1C |
| 3.5 | CC(=O)N1CCC[C@H]1C(=O)N(C)[C@H](CC(C)C)C(=O)N[C@@H]1C(=O)N[C@H](CC(C)C)C(=O)N[C@@H](CC(C)C)C(=O)N(C)[C@@H](CC(C)C)C(=O)N(C)[C@@H](C)C(=O)N[C@H](CC(C)C)C(=O)N2CCC[C@H]2C(=O)O[C@@H]1C |
| 0.81 | CC(=O)N1CCC[C@@H]1C(=O)N(C)[C@H](CC(C)C)C(=O)N[C@@H]1C(=O)N(C)[C@@H](CC(C)C)C(=O)N(C)[C@@H](CC(C)C)C(=O)N(C)[C@@H](CC(C)C)C(=O)N[C@@H](C)C(=O)N[C@H](CC(C)C)C(=O)N2CCC[C@H]2C(=O)O[C@@H]1C |
| 0.11 | CC(=O)N1CCC[C@H]1C(=O)N(C)[C@@H](CC(C)C)C(=O)N[C@@H]1C(=O)N[C@@H](CC(C)C)C(=O)N[C@H](CC(C)C)C(=O)N[C@H](CC(C)C)C(=O)N[C@H](C)C(=O)N[C@@H](CC(C)C)C(=O)N2CCC[C@H]2C(=O)O[C@@H]1C |
| 0.12 | CC(=O)N1CCC[C@@H]1C(=O)N(C)[C@H](CC(C)C)C(=O)N[C@@H]1C(=O)N[C@H](CC(C)C)C(=O)N[C@H](CC(C)C)C(=O)N[C@H](CC(C)C)C(=O)N[C@@H](C)C(=O)N[C@@H](CC(C)C)C(=O)N2CCC[C@@H]2C(=O)O[C@@H]1C |
| 1.4 | CC(=O)N1CCC[C@H]1C(=O)N(C)[C@@H](CC(C)C)C(=O)N[C@@H]1C(=O)N[C@@H](CC(C)C)C(=O)N[C@H](CC(C)C)C(=O)N(C)[C@@H](CC(C)C)C(=O)N[C@@H](C)C(=O)N[C@H](CC(C)C)C(=O)N2CCC[C@H]2C(=O)O[C@@H]1C |
| 0.89 | CC(=O)N1CCC[C@@H]1C(=O)N(C)[C@H](CC(C)C)C(=O)N[C@@H]1C(=O)N[C@H](CC(C)C)C(=O)N[C@H](CC(C)C)C(=O)N(C)[C@H](CC(C)C)C(=O)N(C)[C@@H](C)C(=O)N[C@@H](CC(C)C)C(=O)N2CCC[C@H]2C(=O)O[C@@H]1C |
| 0.79 | CC(=O)N1CCC[C@H]1C(=O)N(C)[C@@H](CC(C)C)C(=O)N[C@@H]1C(=O)N[C@H](CC(C)C)C(=O)N[C@@H](CC(C)C)C(=O)N[C@@H](CC(C)C)C(=O)N[C@@H](C)C(=O)N[C@@H](CC(C)C)C(=O)N2CCC[C@H]2C(=O)O[C@@H]1C |
| 1.4 | CC(=O)N1CCC[C@H]1C(=O)N(C)[C@@H](CC(C)C)C(=O)N[C@@H]1C(=O)N[C@H](CC(C)C)C(=O)N[C@H](CC(C)C)C(=O)N(C)[C@@H](CC(C)C)C(=O)N(C)[C@@H](C)C(=O)N[C@@H](CC(C)C)C(=O)N2CCC[C@H]2C(=O)O[C@@H]1C |
| 4 | CC(=O)N1CCC[C@@H]1C(=O)N(C)[C@@H](CC(C)C)C(=O)N[C@@H]1C(=O)N(C)[C@H](CC(C)C)C(=O)N(C)[C@H](CC(C)C)C(=O)N[C@H](CC(C)C)C(=O)N(C)[C@H](C)C(=O)N[C@H](CC(C)C)C(=O)N2CCC[C@H]2C(=O)O[C@@H]1C |
| 6.6 | CC(=O)N1CCC[C@H]1C(=O)N(C)[C@@H](CC(C)C)C(=O)N[C@@H]1C(=O)N[C@H](CC(C)C)C(=O)N(C)[C@H](CC(C)C)C(=O)N[C@@H](CC(C)C)C(=O)N(C)[C@@H](C)C(=O)N[C@H](CC(C)C)C(=O)N2CCC[C@H]2C(=O)O[C@@H]1C |
| 1.5 | CC(=O)N1CCC[C@H]1C(=O)N[C@@H]1C(=O)N[C@H](CC(C)C)C(=O)N[C@@H](CC(C)C)C(=O)N[C@@H](CC(C)C)C(=O)N(C)[C@@H](CC(C)C)C(=O)N(C)[C@H](C)C(=O)N[C@@H](CC(C)C)C(=O)N2CCC[C@@H]2C(=O)O[C@@H]1C |
| 8.7 | CC(=O)N1CCC[C@H]1C(=O)N(C)[C@@H](CC(C)C)C(=O)N[C@@H]1C(=O)N(C)[C@H](CC(C)C)C(=O)N(C)[C@H](CC(C)C)C(=O)N(C)[C@@H](CC(C)C)C(=O)N(C)[C@@H](C)C(=O)N[C@H](CC(C)C)C(=O)N2CCC[C@H]2C(=O)O[C@@H]1C |
| 0.26 | CC(=O)N1CCC[C@H]1C(=O)N(C)[C@H](CC(C)C)C(=O)N[C@@H]1C(=O)N[C@@H](CC(C)C)C(=O)N[C@H](CC(C)C)C(=O)N[C@H](CC(C)C)C(=O)N[C@@H](C)C(=O)N[C@H](CC(C)C)C(=O)N2CCC[C@H]2C(=O)O[C@@H]1C |
| 3.4 | CC(=O)N1CCC[C@@H]1C(=O)N(C)[C@@H](CC(C)C)C(=O)N[C@@H]1C(=O)N(C)[C@@H](CC(C)C)C(=O)N[C@@H](CC(C)C)C(=O)N(C)[C@@H](CC(C)C)C(=O)N[C@@H](C)C(=O)N[C@@H](CC(C)C)C(=O)N2CCC[C@H]2C(=O)O[C@@H]1C |
| 1.4 | CC(=O)N1CCC[C@@H]1C(=O)N(C)[C@H](CC(C)C)C(=O)N[C@@H]1C(=O)N[C@H](CC(C)C)C(=O)N(C)[C@@H](CC(C)C)C(=O)N[C@@H](CC(C)C)C(=O)N(C)[C@H](C)C(=O)N[C@H](CC(C)C)C(=O)N2CCC[C@@H]2C(=O)O[C@@H]1C |
| 5 | CC(=O)N1CCC[C@H]1C(=O)N(C)[C@@H](CC(C)C)C(=O)N[C@@H]1C(=O)N(C)[C@@H](CC(C)C)C(=O)N(C)[C@H](CC(C)C)C(=O)N(C)[C@H](CC(C)C)C(=O)N(C)[C@@H](C)C(=O)N[C@H](CC(C)C)C(=O)N2CCC[C@H]2C(=O)O[C@@H]1C |
| 1.8 | CC(=O)N1CCC[C@H]1C(=O)N(C)[C@@H](CC(C)C)C(=O)N[C@@H]1C(=O)N[C@@H](CC(C)C)C(=O)N(C)[C@H](CC(C)C)C(=O)N(C)[C@H](CC(C)C)C(=O)N(C)[C@@H](C)C(=O)N[C@@H](CC(C)C)C(=O)N2CCC[C@@H]2C(=O)O[C@@H]1C |

A selection of 3 entries from above:

| SMILES | PAMPA (10^-6 cm/s) |
|---|---|
| CC(=O)N1CCC[C@H]1C(=O)N(C)[C@@H](CC(C)C)C(=O)N[C@@H]1C(=O)N[C@@H](CC(C)C)C(=O)N(C)[C@H](CC(C)C)C(=O)N(C)[C@H](CC(C)C)C(=O)N(C)[C@@H](C)C(=O)N[C@@H](CC(C)C)C(=O)N2CCC[C@@H]2C(=O)O[C@@H]1C | 1.8 |
| CC(=O)N1CCC[C@@H]1C(=O)N(C)[C@@H](CC(C)C)C(=O)N[C@@H]1C(=O)N(C)[C@H](CC(C)C)C(=O)N(C)[C@H](CC(C)C)C(=O)N[C@H](CC(C)C)C(=O)N(C)[C@H](C)C(=O)N[C@H](CC(C)C)C(=O)N2CCC[C@H]2C(=O)O[C@@H]1C | 4 |
| CC(=O)N1CCC[C@H]1C(=O)N(C)[C@@H](CC(C)C)C(=O)N[C@@H]1C(=O)N[C@H](CC(C)C)C(=O)N(C)[C@H](CC(C)C)C(=O)N[C@@H](CC(C)C)C(=O)N(C)[C@@H](C)C(=O)N[C@H](CC(C)C)C(=O)N2CCC[C@H]2C(=O)O[C@@H]1C | 6.6 |

Source: CycPeptMPDB (Li et al. 2023), which took these values from Kelly et al. 2021, doi:10.1021/jacs.0c06115.